Data on 1 compound can be found in patent EP3150574B1, “AMANTADINE NITRATE COMPOUND HAVING A NEUROPROTECTIVE EFFECT AND PREPARATION AND MEDICAL USE THEREOF” (Guangzhou Magpie Pharmaceuticals Co., Ltd., priority 2014, dated 2015).

The term EC50 denotes the midpoint of the concentration-response curve.

The experiment deals with primary cerebellum granule cells of rats. In words: Protective effects of compounds on primary cerebellum granule cells against glutamate-induced excitotoxic injury (MTT cell viability). The format is cell-based. Conditions: protective effect on rat's nerve cells, pre-protection 2 h, then for 24 h, absorbance at 570 nm.

Take `CC12CC3CC(C)(C1)CC(N)(C3)C2` [memantine, reference compound]: the EC50 was 2720 nM.
